Reference: patent US8324245B2

Amino acid sequences for entries named in this document (tags omitted). Residues count along the entry.
UniProt P08581, 25-1390 limits assumed: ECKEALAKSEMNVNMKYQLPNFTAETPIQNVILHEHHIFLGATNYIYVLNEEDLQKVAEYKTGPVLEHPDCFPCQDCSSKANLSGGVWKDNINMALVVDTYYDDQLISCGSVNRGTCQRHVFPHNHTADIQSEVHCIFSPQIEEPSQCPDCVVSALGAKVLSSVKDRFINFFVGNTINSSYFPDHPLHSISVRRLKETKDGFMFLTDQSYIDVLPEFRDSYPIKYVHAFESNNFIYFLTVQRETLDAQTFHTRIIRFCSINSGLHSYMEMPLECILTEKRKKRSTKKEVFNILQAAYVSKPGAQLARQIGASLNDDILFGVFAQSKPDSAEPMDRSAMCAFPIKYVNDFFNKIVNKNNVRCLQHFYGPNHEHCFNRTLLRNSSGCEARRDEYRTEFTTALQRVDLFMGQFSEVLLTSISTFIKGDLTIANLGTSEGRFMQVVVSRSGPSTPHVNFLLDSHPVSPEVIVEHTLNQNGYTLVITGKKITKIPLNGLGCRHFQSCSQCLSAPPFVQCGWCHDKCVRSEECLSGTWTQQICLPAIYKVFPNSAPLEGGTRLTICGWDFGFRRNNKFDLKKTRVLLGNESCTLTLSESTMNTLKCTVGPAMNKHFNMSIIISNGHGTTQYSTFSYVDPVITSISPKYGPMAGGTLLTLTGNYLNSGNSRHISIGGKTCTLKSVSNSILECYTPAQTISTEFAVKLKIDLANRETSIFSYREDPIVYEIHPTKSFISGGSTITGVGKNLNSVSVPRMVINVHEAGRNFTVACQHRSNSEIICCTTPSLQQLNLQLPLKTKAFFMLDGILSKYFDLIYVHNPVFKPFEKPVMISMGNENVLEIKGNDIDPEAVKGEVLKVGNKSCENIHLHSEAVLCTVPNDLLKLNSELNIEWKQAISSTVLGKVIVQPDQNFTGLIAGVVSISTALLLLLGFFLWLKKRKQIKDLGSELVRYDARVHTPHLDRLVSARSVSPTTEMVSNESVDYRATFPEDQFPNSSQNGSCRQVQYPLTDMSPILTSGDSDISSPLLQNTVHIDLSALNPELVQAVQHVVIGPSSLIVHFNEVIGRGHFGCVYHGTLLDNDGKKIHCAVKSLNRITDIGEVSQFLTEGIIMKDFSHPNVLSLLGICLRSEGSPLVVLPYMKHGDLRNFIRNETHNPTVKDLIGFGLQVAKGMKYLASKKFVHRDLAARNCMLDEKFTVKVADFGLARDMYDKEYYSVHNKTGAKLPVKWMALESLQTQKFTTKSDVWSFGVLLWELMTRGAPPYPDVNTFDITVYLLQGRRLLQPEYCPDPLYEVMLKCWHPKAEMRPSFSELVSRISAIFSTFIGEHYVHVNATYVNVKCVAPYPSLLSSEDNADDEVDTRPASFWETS

Each molecule was assayed against met (HGF receptor) in human gastric cancer cells MKN45 (Homo sapiens, UniProt P08581) (assay: Inhibitory activity against met-autophosphorylation using ELISA method (2), MKN45 cells, HGF-independent).
Assay type: cell-based

SMILES | IC50 [nM]
COc1cc2nccc(Oc3ccc(NC(=O)NC(=O)CNc4ccccc4C)cc3)c2cc1OC | 1300
COc1cc2nccc(Oc3ccc(NC(=O)NC(=O)CC4C5CCC4CC5)cc3)c2cc1OC (stereo not shown) | 293
COc1cc2c(Oc3ccc(NC(=S)NC(=O)Cc4ccc(F)cc4)cc3F)ccnc2cc1OCCN1CCN(C)CC1 | 39.1
COc1cc2c(Oc3ccc(NC(=S)NC(=O)Cc4cccc(Cl)c4)cc3F)ccnc2cc1OCC(O)CN1CCCC1 (stereo not shown) | 42.6
